Target: Cathepsin S (Homo sapiens, UniProt P25774)

Amino acid sequences for entries named in this document (tags omitted).
UniProt P25774, whole entry: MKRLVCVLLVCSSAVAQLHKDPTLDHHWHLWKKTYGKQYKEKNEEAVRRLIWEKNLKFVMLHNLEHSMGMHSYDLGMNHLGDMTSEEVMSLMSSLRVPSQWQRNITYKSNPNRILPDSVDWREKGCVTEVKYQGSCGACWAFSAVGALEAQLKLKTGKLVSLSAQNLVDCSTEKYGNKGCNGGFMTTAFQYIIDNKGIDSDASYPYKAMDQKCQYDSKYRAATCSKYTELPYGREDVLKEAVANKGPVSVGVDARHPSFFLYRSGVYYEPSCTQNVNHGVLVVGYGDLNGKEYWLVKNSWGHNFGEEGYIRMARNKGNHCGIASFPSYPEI

Structure (SMILES) | Ki [µM]
C[C@@H](CNc1ccc(OC(F)(F)F)cc1)NC(=O)[C@@H](CC(=O)N1CCOCC1)CC1CCCC1 | 0.031
CC[C@@H](CNc1ccc(OC(F)(F)F)cc1)NC(=O)[C@@H](CC(=O)N1CCOCC1)CC1CCCCC1 | 0.016
C[C@@H](CNc1ccc(OC(F)(F)F)cc1)NC(=O)[C@@H](CC(=O)N1CCOCC1)CC(C)(C)C | 0.408

Continued, values first:

Ki [µM] | Structure (SMILES)
0.021 | CC(C)[C@@H](CNc1ccc(OC(F)(F)F)cc1)NC(=O)[C@@H](CC(=O)N1CCOCC1)c1ccc(Cl)cc1
0.105 | COc1ccc([C@H](CC(=O)N2CCOCC2)C(=O)N[C@H](CNc2ccc(OC(F)(F)F)cc2)C(C)C)cc1
1.59 | C[C@@H](CNc1ccc(OC(F)(F)F)cc1)NC(=O)[C@@H](CC(=O)N1CCOCC1)c1ccc(C(F)(F)F)cc1
